Values of other authors in paper PMC9570301.
pKd: −log10 of the molar value. Where two headings read alike, the source gives them in different places. Blank lines part the entries; values can stand above or below the substance they belong to.

By UniProt entry, the sequences of proteins in these tests, tags left out. Residues count along the entry.
UniProt Q15109, 23-116: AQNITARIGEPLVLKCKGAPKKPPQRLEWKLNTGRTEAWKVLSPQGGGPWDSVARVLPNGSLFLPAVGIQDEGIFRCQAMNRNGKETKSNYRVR
UniProt Q15109, 23-342: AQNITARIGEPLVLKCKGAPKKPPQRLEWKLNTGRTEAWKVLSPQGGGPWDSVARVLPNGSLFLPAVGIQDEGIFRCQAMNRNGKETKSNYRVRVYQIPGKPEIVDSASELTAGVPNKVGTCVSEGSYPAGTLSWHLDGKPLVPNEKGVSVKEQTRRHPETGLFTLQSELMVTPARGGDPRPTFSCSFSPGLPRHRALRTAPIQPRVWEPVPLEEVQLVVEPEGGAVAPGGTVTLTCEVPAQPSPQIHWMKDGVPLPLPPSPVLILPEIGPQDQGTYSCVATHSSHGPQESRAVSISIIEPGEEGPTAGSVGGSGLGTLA

How the values were obtained:
[1] = target: RAGE V-domain (Homo sapiens) (UniProt Q15109)
[2] = target: RAGE (Homo sapiens) (UniProt Q15109)
[3] = target: RAGE V-domain (Homo sapiens) (UniProt Q15109); remark: listed apart in the source

- pKd [1]: 7.28
Substance: Beta-amyloid (from UniProt P05067)

- pKd [2]: 7.04
Substance: Beta-amyloid 42 (from UniProt P05067)

- pKd [3]: 6.22
Substance: Beta-amyloid 40 (from UniProt P05067)
